“And” between values parts separate entries of the source, which are not always exact repeats. Equal entries are not always repeated.
How the values were obtained:
[1] = Necropsy observations and organ weights, day 15; assay type: in vivo, Sprague-Dawley rats; details: Group E, 0.75 mg/kg, males, individual animals, tartrate
Description: Body weight and food consumption was measured daily for 14 days. On day 15, urine was collected on all surviving animals. The animals were euthanized and bled via cardiac puncture, and blood was collected for analysis. Tissues were collected, weighed, evaluated for gross abnormalities, and stored in 10% neutral-buffered formalin.
(§1) On day 15, urine was collected on all surviving animals for urinalysis. The animals were euthanized and bled via cardiac puncture. Blood was collected for hematology, clinical chemistry, and coagulation analysis. Tissues were collected, weighed, and stored in 10% neutral-buffered formalin for possible future analysis.

[2] = Coagulation parameters (aPTT, PT), day 15; assay type: in vivo, Sprague-Dawley rats
From the text: as §1
Individual values for the coagulation parameters activated partial thromboplastin (aPTT) and prothrombin times (PT) for each animal are listed in Table 34 (normal ranges, Table 30). These are summarized in terms of descriptive statistics in Table 25.

Structure (SMILES): CN1CCCC1c1cccnc1.O=C(O)C(O)C(O)C(=O)O (single isomer, unassigned; (-)) [Nicotine, (−) Nicotine hydrogen tartrate]
- Tissue Collection Weights: Liver [1]: 14.20 g
- P[…] ([2]; male, 0.75 mg/kg, group mean): 13.6 s
- P[…] ([2]; nicotine 0.75 mg/kg, female rats, individual animals, tartrate): 13.9 s and 14.2 s
- P[…] ([2]; nicotine 0.75 mg/kg, male rats, individual animals, tartrate): 13.8 s and 13.2 s and 14.2 s and 13 s
